Assay results reported in patent US20260382731A1, “BCL-2/BCL-XL PROTEIN DEGRADER AND USE THEREOF” (published 2026).

By UniProt entry, the sequences of proteins in these tests, tags left out.
UniProt Q07817, whole entry: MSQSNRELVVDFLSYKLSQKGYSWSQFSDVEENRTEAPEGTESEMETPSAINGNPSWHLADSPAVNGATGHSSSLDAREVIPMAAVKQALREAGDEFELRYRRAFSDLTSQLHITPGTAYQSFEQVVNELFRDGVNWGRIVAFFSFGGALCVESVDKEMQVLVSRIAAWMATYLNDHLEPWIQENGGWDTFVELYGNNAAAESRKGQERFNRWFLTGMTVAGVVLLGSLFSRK

Columns and labels:
[1] = test system: MOLT-4 cells; experiment: Cell viability assay, MOLT-4 (CellTiter-Glo, 72 h); details: read-out: MOLT4 Cell viability IC50
[2] = molecular target: BCL-XL (Homo sapiens, UniProt Q07817); experiment: Immunoblotting: BCL-XL protein degradation; details: read-out: MDA-MB-231 degradation DC50, MDA-MB-231 cells
From the text: Cells were collected and lysed in a lysis buffer (Cat. No. BP-115DG, Boston Bio Products, Ashland, MA, USA) containing protease and phosphatase inhibitor cocktails (Cat. No. PPC1010, Sigma-Aldrich, St. Louis, MO, USA). An equal amount of protein lysates was separated on precasted 4-20% Tris-glycine gels (Mini-PROTEAN TGX, Cat. No. 456-1094, Bio-Rad, Hercules, CA, USA). Thereafter, the proteins were transferred to PVDF membranes (Cat. No. LC2002, MilliporeSigma, Billerica, MA, USA). The membranes were blocked with 5% w/v nonfat dry milk in TBS+Tween-20 (0.1% v/v) and then probed with primary antibodies overnight at 4 °C. Next day, the membranes were washed and incubated with appropriate horseradish peroxidase (HRP)-conjugated secondary antibodies. Primary antibodies against BCL-XL (Cat. No. 2762) and Pactin (Cat. No. 4970) and the secondary HRP-linked antibody (Cat. No. 7074) were purchased from Cell Signaling Technology (Danvers, MA, USA). The signal was detected using the ECL substrate (Cat. No. WBKLS0500, MilliporeSigma, Billerica, MA, USA) and captured on the ChemiDoc MP Imaging System (Bio-Rad, Hercules, CA, USA). The band intensities were calculated on the ImageJ software and normalized to equal loading control β-actin.

[3] = test system: human platelets; experiment: Platelet viability test (CellTiter-Glo, 72 h); details: read-out: Human platelet IC50
Description: Human platelet-rich Plasma (PRP) was purchased from Milestone® Biotechnology Limited. PRPS are used for experiments immediately after arrival. Transfer PRP to a 50-mL polypropylene EP tube containing 5 mL citrate buffer (cat. no. sc-214744, Santa Cruz Biotechnology). To avoid clotting, The final concentration of prostaglandin E1 (PGE1, cat. no. sc-201223A, Santa Cruz Biotechnology) and adenosine diphosphonase triphosphate (cat. no. A6410-200UN, 2 units/mL, respectively) were added to the EP tube. Sigma-Aldrich). Slightly shake and mix the liquid in the EP tube, centrifuge it at 1200 g for 10 minutes, and separate the platelets. HEPES buffer benchtop solution (10 mM HEPES, 135 mM NaCl, 2.8 mM KCl, 1 mM MgCl2, 2 mM CaCl2), 10 mm Hepes, 135 mm NaCl, 2.8 mm KCL, 1 mm MgCl2, 2 mm CaCl2)) was prepared with 2 mL of prostaglandin E1 and 2 units/mL of adenosine bisphosphonase triphosphate. 12 mM NaHCO3, 0.4 mM NaH2PO4, 0.25% BSA and 5.5 mM glucose, pH 7.4; cat. no. Cat. No. Cat. #:25-02580, Tiandz) continuously and gently clean the platelet precipitates after centrifugation. After washing, platelets were slowly reinserted to HEPES buffer table solution containing 1 μM of prostaglandin E1 and 2 units/mL of adenosine bisphosphonase triphosphate. Platelets were counted by Vi-cell XR (Backman) cell counter. Platelet activity tests were performed: platelets were resuscitated into a HEPES buffer solution containing 1 µM of prostaglandin E1 and 2 units/mL of adenosine bisphosphonase triphosphate and 10% FBS, counted, and inoculated into 96-well plates with 5×10^5 platelets per well. Different concentrations of the compound to be detected (starting at 10 μM, diluted 3 times) were added to 96-well plates and incubated in the cell incubator for 72 h. 72 h after administration, platelet activity was detected by CellTiter-Glo™ luminescence assay.

IC50 [1] | DC50 [2] | Compound | IC50 [3]
52 nM | 9 nM | CCn1c(C)c(C(=O)N2C[C@H](O)[C@@H](O)C2)c(-c2cc(F)cc(N3CCN(c4ccc(NS(=O)(=O)c5ccc(N[C@H](CCN6CCN(C(=O)CCCCCC(=O)N[C@H](C(=O)N7C[C@H](O)C[C@H]7C(=O)N[C@@H](C)c7ccc(-c8scnc8C)cc7)C(C)(C)C)CC6)CSc6ccccc6)c(S(=O)(=O)C(F)(F)F)c5)cc4)CC3)c2)c1-c1ccc(F)cc1 | 1800 nM
9 nM | 15 nM | Cc1ncsc1-c1ccc([C@H](C)NC(=O)[C@@H]2C[C@@H](O)CN2C(=O)[C@@H](NC(=O)CCCCCC(=O)N2CCN(CC[C@H](CSc3ccccc3)Nc3ccc(S(=O)(=O)Nc4ccc(N5CCN(c6cc(F)cc(-c7c(C(=O)N8CC[C@H](O)C8)c(C)n(C(C)C)c7-c7ccccc7)c6)CC5)cc4)cc3S(=O)(=O)C(F)(F)F)CC2)C(C)(C)C)cc1 | 151 nM
28 nM | 5 nM | CCn1c(C)c(C(=O)N2CC[C@H](NC(C)=O)C2)c(-c2cc(F)cc(N3CCN(c4ccc(NS(=O)(=O)c5ccc(N[C@H](CCN6CCN(C(=O)CCCCCC(=O)N[C@H](C(=O)N7C[C@H](O)C[C@H]7C(=O)N[C@@H](C)c7ccc(-c8scnc8C)cc7)C(C)(C)C)CC6)CSc6ccccc6)c(S(=O)(=O)C(F)(F)F)c5)cc4)CC3)c2)c1-c1ccc(F)cc1 | 647 nM
128 nM | 2 nM | Cc1ncsc1-c1ccc([C@H](C)NC(=O)[C@@H]2C[C@@H](O)CN2C(=O)[C@@H](NC(=O)CCCCCC(=O)N2CCC3(CC2)CN(CC[C@H](CSc2ccccc2)Nc2ccc(S(=O)(=O)Nc4ccc(N5CCN(c6cc(F)cc(-c7c(S(C)(=O)=O)c(C)n(C)c7-c7ccc(F)cc7)c6)CC5)cc4)cc2S(=O)(=O)C(F)(F)F)C3)C(C)(C)C)cc1 | 72 nM
7 nM | 4 nM | Cc1ncsc1-c1ccc([C@H](C)NC(=O)[C@@H]2C[C@@H](O)CN2C(=O)[C@@H](NC(=O)CCCCCC(=O)N2CCN(CC[C@H](CSc3ccccc3)Nc3ccc(S(=O)(=O)Nc4ccc(N5CCN(c6cc(F)cc(-c7c(C(=O)N8CC[C@H](O)C8)c(C)n(C(C)C)c7-c7ccc(F)cc7)c6)CC5)cc4)cc3S(=O)(=O)C(F)(F)F)CC2)C(C)(C)C)cc1 | 810 nM
110 nM | 15 nM | Cc1ncsc1-c1ccc([C@H](C)NC(=O)[C@@H]2C[C@@H](O)CN2C(=O)[C@@H](NC(=O)CCCCCC(=O)N2CCN(CC[C@H](CSc3ccccc3)Nc3ccc(S(=O)(=O)Nc4ccc(N5CCN(c6cc(F)cc(-c7c(C(=O)N8CC[C@H](O)C8)c(C)n(C)c7-c7ccccc7)c6)CC5)cc4)cc3S(=O)(=O)C(F)(F)F)CC2)C(C)(C)C)cc1 | > 10000 nM
160 nM | 18 nM | Cc1ncsc1-c1ccc([C@H](C)NC(=O)[C@@H]2C[C@@H](O)CN2C(=O)[C@@H](NC(=O)CCCCCC(=O)N2CCN(CC[C@H](CSc3ccccc3)Nc3ccc(S(=O)(=O)Nc4ccc(N5CCN(c6cc(F)cc(-c7c(C(=O)N8CC[C@H](O)C8)c(C)n(C)c7-c7ccc(F)cc7)c6)CC5)cc4)cc3S(=O)(=O)C(F)(F)F)CC2)C(C)(C)C)cc1 | > 10000 nM
24 nM | 43 nM | CCn1c(C)c(C(=O)N(C)C)c(-c2cc(F)cc(N3CCN(c4ccc(NS(=O)(=O)c5ccc(N[C@H](CCN6CCN(C(=O)CCCCCC(=O)N[C@H](C(=O)N7C[C@H](O)C[C@H]7C(=O)N[C@@H](C)c7ccc(-c8scnc8C)cc7)C(C)(C)C)CC6)CSc6ccccc6)c(S(=O)(=O)C(F)(F)F)c5)cc4)CC3)c2)c1-c1ccc(F)cc1 | > 10000 nM
22 nM | 3 nM | CCn1c(C)c(S(C)(=O)=O)c(-c2cc(F)cc(N3CCN(c4ccc(NS(=O)(=O)c5ccc(N[C@H](CCN6CCN(CCCCOCC(=O)N[C@H](C(=O)N7C[C@H](O)C[C@H]7C(=O)N[C@@H](C)c7ccc(-c8scnc8C)cc7)C(C)(C)C)CC6)CSc6ccccc6)c(S(=O)(=O)C(F)(F)F)c5)cc4)CC3)c2)c1-c1ccc(F)cc1 | 74 nM
17 nM | 4 nM | CCn1c(C)c(C(=O)NCCC2CCOCC2)c(-c2cc(F)cc(N3CCN(c4ccc(NS(=O)(=O)c5ccc(N[C@H](CCN6CCN(CCCCCCC(=O)N[C@H](C(=O)N7C[C@H](O)C[C@H]7C(=O)N[C@@H](C)c7ccc(-c8scnc8C)cc7)C(C)(C)C)CC6)CSc6ccccc6)c(S(=O)(=O)C(F)(F)F)c5)cc4)CC3)c2)c1-c1ccc(F)cc1 | 563 nM
24 nM | 6 nM | CCn1c(C)c(C(=O)N2CCN(C)CC2)c(-c2cc(F)cc(N3CCN(c4ccc(NS(=O)(=O)c5ccc(N[C@H](CCN6CCN(C(=O)CCCCCC(=O)N[C@H](C(=O)N7C[C@H](O)C[C@H]7C(=O)N[C@@H](C)c7ccc(-c8scnc8C)cc7)C(C)(C)C)CC6)CSc6ccccc6)c(S(=O)(=O)C(F)(F)F)c5)cc4)CC3)c2)c1-c1ccc(F)cc1 | 134 nM
64 nM | 4 nM | CCn1c(C)c(S(C)(=O)=O)c(-c2cc(F)cc(N3CCN(c4ccc(NS(=O)(=O)c5ccc(N[C@H](CCN6CCC7(CC6)CN(C(=O)CCCCCC(=O)N[C@H](C(=O)N6C[C@H](O)C[C@H]6C(=O)N[C@@H](C)c6ccc(-c8scnc8C)cc6)C(C)(C)C)C7)CSc6ccccc6)c(S(=O)(=O)C(F)(F)F)c5)cc4)CC3)c2)c1-c1ccc(F)cc1 | 132 nM
17 nM | 3 nM | CCn1c(C)c(S(C)(=O)=O)c(-c2cc(F)cc(N3CCN(c4ccc(NS(=O)(=O)c5ccc(N[C@H](CCN6CCN(CCCCCCC(=O)N[C@H](C(=O)N7C[C@H](O)C[C@H]7C(=O)N[C@@H](C)c7ccc(-c8scnc8C)cc7)C(C)(C)C)CC6)CSc6ccccc6)c(S(=O)(=O)C(F)(F)F)c5)cc4)CC3)c2)c1-c1ccc(F)cc1 | 132 nM
21 nM | 6 nM | CCn1c(C)c(S(C)(=O)=O)c(-c2cc(F)cc(N3CCN(c4ccc(NS(=O)(=O)c5ccc(N[C@H](CCN6CCN(CCCCCC(=O)N[C@H](C(=O)N7C[C@H](O)C[C@H]7C(=O)NC7(c8ccc(-c9scnc9C)cc8)CC7)C(C)(C)C)CC6)CSc6ccccc6)c(S(=O)(=O)C(F)(F)F)c5)cc4)CC3)c2)c1-c1ccc(F)cc1 | 40 nM
15 nM | 0.5 nM | CCn1c(C)c(S(C)(=O)=O)c(-c2cc(F)cc(N3CCN(c4ccc(NS(=O)(=O)c5ccc(N[C@H](CCN6CCN(C(=O)CCCCCC(=O)N[C@H](C(=O)N7C[C@H](O)C[C@H]7C(=O)N[C@@H](C)c7ccc(-c8scnc8C)cc7)C(C)(C)C)CC6)CSc6ccccc6)c(S(=O)(=O)C(F)(F)F)c5)cc4)CC3)c2)c1-c1ccccc1 | 108 nM
14 nM | 0.8 nM | CCn1c(C)c(C(=O)N2CCN(C)CC2)c(-c2cc(F)cc(N3CCN(c4ccc(NS(=O)(=O)c5ccc(N[C@H](CCN6CCN(C(=O)CCCCCC(=O)N[C@H](C(=O)N7C[C@H](O)C[C@H]7C(=O)N[C@@H](C)c7ccc(-c8scnc8C)cc7)C(C)(C)C)CC6)CSc6ccccc6)c(S(=O)(=O)C(F)(F)F)c5)cc4)CC3)c2)c1-c1ccc(Cl)cc1 | 68 nM
50 nM | 2 nM | CCn1c(C)c(S(C)(=O)=O)c(-c2cc(F)cc(N3CCN(c4ccc(NS(=O)(=O)c5ccc(N[C@H](CCN6CCN(C(=O)CCCOCCCC(=O)N[C@H](C(=O)N7C[C@H](O)C[C@H]7C(=O)N[C@@H](C)c7ccc(-c8scnc8C)cc7)C(C)(C)C)CC6)CSc6ccccc6)c(S(=O)(=O)C(F)(F)F)c5)cc4)CC3)c2)c1-c1ccc(F)cc1 | 461 nM
20 nM | 11 nM | CCn1c(C)c(C(=O)N2CC[C@H](O)C2)c(-c2cc(F)cc(N3CCN(c4ccc(NS(=O)(=O)c5ccc(N[C@H](CCN6CCN(C(=O)CCCCCC(=O)N[C@H](C(=O)N7C[C@H](O)C[C@H]7C(=O)N[C@@H](C)c7ccc(-c8scnc8C)cc7)C(C)(C)C)CC6)CSc6ccccc6)c(S(=O)(=O)C(F)(F)F)c5)cc4)CC3)c2)c1-c1ccccc1 | 455 nM
